Measured values reported in patent US20260271928A1, “CONTROL OF PESTS RESISTANT TO INSECTICIDES” (Syngenta Crop Protection Ag, priority 2023, published 2026).

Target: T1, vesicular acetylcholine transporter (VAChT) (Lucilia sericata, UniProt Z9IC98WFD0)
T1 sequence (Z9IC98WFD0 1-593): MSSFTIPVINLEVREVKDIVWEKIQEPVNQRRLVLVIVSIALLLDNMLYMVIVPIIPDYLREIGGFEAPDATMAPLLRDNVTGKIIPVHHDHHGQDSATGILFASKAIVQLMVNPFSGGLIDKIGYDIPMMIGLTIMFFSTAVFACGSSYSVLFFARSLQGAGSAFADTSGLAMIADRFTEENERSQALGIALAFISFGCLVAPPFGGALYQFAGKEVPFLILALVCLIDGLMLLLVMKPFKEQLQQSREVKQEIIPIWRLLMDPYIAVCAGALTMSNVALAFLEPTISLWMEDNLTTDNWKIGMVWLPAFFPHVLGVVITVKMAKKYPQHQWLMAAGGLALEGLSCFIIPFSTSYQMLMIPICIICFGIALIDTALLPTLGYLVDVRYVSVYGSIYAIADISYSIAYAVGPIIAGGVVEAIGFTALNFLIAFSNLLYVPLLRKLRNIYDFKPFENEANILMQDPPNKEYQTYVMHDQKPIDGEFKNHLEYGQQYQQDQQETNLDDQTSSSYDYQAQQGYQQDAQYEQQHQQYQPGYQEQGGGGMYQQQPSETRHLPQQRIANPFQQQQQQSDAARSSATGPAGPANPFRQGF
Test: [3H]-A1 radioligand binding and competitive displacement, Lucilia sericata head membrane
Settings: Lucilia membranes; ligands with identified target proteins
Procedure: Methods herein were generally adapted from this publication.
Binding of [^3H]-A1 was measured using Lucilia sericata head membrane suspended in 50 mM Tris HCL buffer (pH7.4) containing 120 mM NaCl, and 100 mM EDTA, at a protein concentration of 1 mg/ml for dispensing into 96 well plates to give 50 μg protein per well. [^3H]-A1 was added to plates as a 37 MBq/ml ethanol stock dissolved in 2.2 ml assay buffer to give an approximate final well concentration of 9 nM. Test compounds were incubated at 25° C. for 90 min with 9 nM [^3H]-A1 (or a range of concentrations for saturation analysis) at either 8 rates (where prepared manually) or 6 or 10 rates where prepared using robotics. The binding incubation was terminated by vacuum filtration through glass fibre filter mats (PerkinElmerFilterMat A, Seer Green, UK), pre-treated with 0.5% polyethyleneimine and mounted on a Tomtec cell harvester. The filters were then washed rapidly with ice-cold water, dried and bound radioactivity measured using an EG&GWallac betaplate scintillation counter after impregnating the filter with solid scintillant (PerkinElmer MeltiLex). Non specific binding was subtracted from the counts at each data point to give the specific binding. The amount of displacement was calculated as a % of the control and the IC50 calculated from a curve fitted using a single-exponential algorithm. […]

Ryanodine
IC50: > 22.9 µM
